Consider one compound from patent US9073917B2, “Anti-cancer compound and pharmaceutical composition containing the same” (SANOFI, priority 2009, dated 2015).

Protein sequences, listed by entry. Tags and fused reporters are not part of them.
UniProt Q96GD4, whole entry: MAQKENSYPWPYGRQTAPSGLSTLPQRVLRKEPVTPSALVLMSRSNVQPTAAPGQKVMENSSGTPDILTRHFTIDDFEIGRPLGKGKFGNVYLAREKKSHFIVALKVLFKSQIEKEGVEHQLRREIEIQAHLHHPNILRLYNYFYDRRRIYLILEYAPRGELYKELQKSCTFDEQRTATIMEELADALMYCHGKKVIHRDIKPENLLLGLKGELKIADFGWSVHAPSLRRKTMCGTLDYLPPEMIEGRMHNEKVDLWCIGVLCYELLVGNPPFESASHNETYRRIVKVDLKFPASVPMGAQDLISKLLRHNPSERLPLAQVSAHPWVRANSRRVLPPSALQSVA

A word on the IC50: it is the point on the concentration scale where inhibition reaches its midpoint.

In this assay the target is Aurora B/Incenp (Homo sapiens (Human), UniProt Q96GD4). As to the kind of experiment: Aurora B/Incenp kinase activity, radioactive 33P incorporation into NuMA fragment.

On to `CCOC(=O)c1[nH]cc2c1NC1=C(C(=O)CCC1)[C@@H]2c1ccc(Sc2nc3ccccc3[nH]2)o1` [Example 12], for which the concentration for half-maximal inhibition (IC50) was found to be 3 nM.
